Where two headings read alike, the source gives them in different places.
Assay: Solubility of tetrazolium salts in 0.2M phosphate buffer
Assay type: physicochemical

5-Benzo[1,3 dioxol-5-yl]-3-[2-(3-trimethylammonium) propoxy-phenyl]-2-(5-chloro-4-difluoromethyl-thiazol-2-yl)-2H-tetrazolium bromo nitrite salt [Example 1]
Solubilility (0.2M phosphate buffer, pH ~7.5, room temperature): 33 mM

CCOc1ccc2nc(-n3nc(-c4ccc(OCCC[N+](C)(C)C)c(OC)c4)n[n+]3-c3ccccc3OCCC[N+](C)(C)C)sc2c1.O=N[O-].[Br-].[Br-] [Example 7]
Solubilility: 167 mM
